The results in this text go back to patent publication US11161831B2.

The chains behind the UniProt entries cited, without tags or fusion partners.
UniProt P40763, whole entry: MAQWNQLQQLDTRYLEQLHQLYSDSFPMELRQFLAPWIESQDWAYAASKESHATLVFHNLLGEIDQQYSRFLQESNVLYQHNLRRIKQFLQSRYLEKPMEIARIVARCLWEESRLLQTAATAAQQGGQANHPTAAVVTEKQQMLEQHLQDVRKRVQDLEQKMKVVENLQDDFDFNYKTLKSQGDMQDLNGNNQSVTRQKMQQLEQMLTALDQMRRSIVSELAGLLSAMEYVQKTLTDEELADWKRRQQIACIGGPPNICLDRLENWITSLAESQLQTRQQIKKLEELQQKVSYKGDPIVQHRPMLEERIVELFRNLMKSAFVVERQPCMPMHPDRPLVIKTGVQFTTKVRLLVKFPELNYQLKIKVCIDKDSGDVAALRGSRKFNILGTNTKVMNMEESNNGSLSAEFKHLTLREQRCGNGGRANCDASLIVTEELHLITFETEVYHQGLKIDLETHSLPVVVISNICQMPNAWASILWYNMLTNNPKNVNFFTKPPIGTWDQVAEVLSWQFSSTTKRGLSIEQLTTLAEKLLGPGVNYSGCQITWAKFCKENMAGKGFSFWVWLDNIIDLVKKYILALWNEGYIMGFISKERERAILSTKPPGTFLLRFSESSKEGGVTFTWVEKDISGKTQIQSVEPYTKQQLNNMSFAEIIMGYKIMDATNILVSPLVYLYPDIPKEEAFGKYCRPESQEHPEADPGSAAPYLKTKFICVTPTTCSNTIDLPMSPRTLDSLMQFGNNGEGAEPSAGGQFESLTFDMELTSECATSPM

Experiment [1] has as its target Stat3 (Homo sapiens, UniProt P40763). The experiment can be described thus: Stat3 SH2/pY-peptide binding assay (SPR, BIAcore). To be noted: for IC50: read-out: SPR IC50, mean ± SD.
Experiment [2] concerns the target GFP-Stat3α (Homo sapiens, UniProt P40763). The experiment in a line: High-throughput fluorescence microscopy (HTFM) cytoplasmic-to-nuclear translocation assay in MEF/GFP-Stat3α cells. The experiment is classed as cell-based, murine. The following applies: read-out: HTFM IC50; mean ± SD.
In experiment [3] the test system is SUM159PT and HS578T cells. The experiment can be described thus: Mammosphere formation assay. The experiment is classed as cell-based. The following applies: for IC50: read-out: Mammosphere ~IC50, SUM159PT and HS578T cells, compound at 1, 10, or 100 μM, 3 d, spheres counted on day 3.
Experiment [4] relates to human leukemic cell line. The experiment in a line: Human leukemic cell line (AML) apoptosis.

In the case of `O=S(=O)(Nc1cc(Sc2nc[nH]n2)c(O)c2ccccc12)c1ccc(Br)cc1`, the “SPR IC50 compared with the parent compound Cpd188” value in experiment [1] was “one log lower”. For the same molecule, the IC50 in experiment [1] came out at 2 µM; in experiment [2], 49 µM; in experiment [3] it was 3 µM. Also, the “greater activity than parent Cpd188 in decreasing MSFE” value in experiment [3] was found to be 1 log. For the same molecule, the “activity in inducing human leukemic cell line apoptosis compared with parent Cpd188” value in experiment [4] is “a log greater activity”.

Take `Cc1cc(C)c(S(=O)(=O)Nc2cc(Cl)c(O)c3ccccc23)cc1C`: the IC50 in experiment [1] amounted to 8 µM; in experiment [2], 22 µM; in experiment [3], 30 µM.
